## AlphaSeq binding of Ab-14 heavy chain variants to a spike HR2 peptide

The measurements come from Engelhart et al. 2022 (doi:10.1038/s41597-022-01779-4) through the FLAb antibody collection.

Target: peptide PDVDLGDISGINAS, taken from heptad repeat 2 (HR2) of SARS-CoV-2 spike.

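The parent was found by panning a naive human phage display library on the peptide. The library (AAYL49) carries one to three amino acid substitutions per variant, with no insertions or deletions. Affinity was read by AlphaSeq, a pooled yeast mating assay with surface-displayed partners. Mating (16 h, 30 °C) was followed by selection of diploids and sequencing of their barcodes. Scores were corrected for input abundance and mapped to Kd with protein pairs of known affinity run in the same pool. Each pool was mated in three replicate cultures.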

Each scFv is VH, a 15-residue (Gly4Ser)3 linker, VL, as in the parent Ab-14, and differs from it in the CDRs of the heavy chain only.
VH: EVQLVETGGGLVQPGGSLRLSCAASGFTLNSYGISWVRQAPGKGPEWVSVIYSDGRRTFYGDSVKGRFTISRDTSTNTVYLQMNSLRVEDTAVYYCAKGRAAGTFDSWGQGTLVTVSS
VL: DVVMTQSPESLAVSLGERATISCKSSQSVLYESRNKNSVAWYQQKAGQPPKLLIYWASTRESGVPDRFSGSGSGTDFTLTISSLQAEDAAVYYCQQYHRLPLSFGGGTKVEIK

Substitutions are numbered in sequence along the VH above, starting at 1 (not Kabat).
All variants listed here change G26 of the VH, counted from its first residue.
Values are log10 of the apparent Kd in nM; lower means stronger binding.
An entry "ND" has no value in the source: the pair was not observed among the diploids in that replicate. This suggests poor binding but is not conclusive.
Empty control strains, which show no peptide, gave a signal in 15% of pairings with library AAYL49; the median was 4.06 and 95% of these signals were weaker than 2.83. No background was subtracted.
For reference, the parent read 0.65 as the reference entry and 4.11 (one replicate of three) as a member of this library.

With G26N/V64N/G103Q the result was ND, ND, ND.
With G26Q/A101H the result was 1.36, 1.58, 1.43.
With G26W/I51A/T104S the result was ND, ND, ND.
With G26T/Y52F/D54Q the result was 4.67, ND, ND.
With G26T/N30R/Y52S the result was 2.92, 2.72, 3.67.
With G26K/Y60H/F105N the result was 5.23, ND, ND.
With G26V/Y32S/G61W the result was ND, ND, ND.
With G26D/D54G/A102W the result was ND, ND, ND.
With G26H/R100I/F105N the result was ND, ND, ND.
With G26C/V64P/K65I the result was ND, 3.96, 5.25.
With G26S/T28Y/A102I the result was ND, ND, ND.
With G26W/T28W/R56N the result was ND, ND, ND.
With G26Y/S53P/T104Y the result was ND, ND, ND.
With G26K/G61Y the result was ND, ND, ND.
With G26I/A102G the result was ND, ND, 3.99.
With G26R/L29R/T58R the result was ND, ND, ND.
With G26K/A102C/S107P the result was 2.74, 2.46, 2.01.
With G26R/L29P/D106T the result was ND, 3.63, ND.
With G26D/V50G/T58H the result was ND, ND, 5.22.
With G26R/S31M the result was 2.82, 3.25, 3.10.
With G26H/R56A/T58W the result was ND, ND, ND.
With G26Q/R56V/R100C the result was 4.25, 3.25, ND.
With G26C/R56H the result was ND, ND, ND.
With G26R/F59H/G61T the result was 3.44, 1.88, 1.70.
With G26H/N30L/S35F the result was ND, ND, ND.
With G26K/T104S the result was 2.11, 2.02, 2.43.
With G26A/S35D/T104C the result was ND, ND, ND.
With G26D/F59T/R100E the result was ND, ND, ND.
With G26E/R100D/S107V the result was 2.11, 1.82, 2.11.
With G26P the result was 1.61, 1.81, 1.76.
With G26N/R56Q/A102F the result was 3.74, ND, ND.
With G26L/I51N/T58W the result was ND, 3.85, ND.
With G26N the result was 4.99, ND, ND.
With G26D/I34L/T58Y the result was ND, ND, 4.53.
With G26K/S31N/R56A the result was 1.04, 0.89, 0.95.
With G26Y the result was 2.78, 2.64, 2.81.
With G26L/S35P/F105N the result was 4.51, 3.91, 5.07.
With G26I/R57A/Y60Q the result was ND, ND, ND.
With G26S/S53F/S107E the result was ND, ND, ND.
With G26P/I51L/K65M the result was ND, ND, ND.

Excerpt, the final 6 entries:

changes,"replicates, log10 nM"
G26K/S31N/R56A,"1.04, 0.89, 0.95"
G26Y,"2.78, 2.64, 2.81"
G26L/S35P/F105N,"4.51, 3.91, 5.07"
G26I/R57A/Y60Q,"ND, ND, ND"
G26S/S53F/S107E,"ND, ND, ND"
G26P/I51L/K65M,"ND, ND, ND"